The results in this text go back to paper PMC3905752 (Nature chemical biology, 2013).

Molecules are shown by their SMILES.

One assay addresses Cdc34A (Homo sapiens, UniProt P0CG48+P49427). Kind of assay: Quantitative SCF ubiquitination assay with β-Catenin substrate peptide. It counts as biochemical.
The next assay has as its target T1, Cdc34A^CAT (Homo sapiens, UniProt P49427).
T1 sequence (P49427 7-184): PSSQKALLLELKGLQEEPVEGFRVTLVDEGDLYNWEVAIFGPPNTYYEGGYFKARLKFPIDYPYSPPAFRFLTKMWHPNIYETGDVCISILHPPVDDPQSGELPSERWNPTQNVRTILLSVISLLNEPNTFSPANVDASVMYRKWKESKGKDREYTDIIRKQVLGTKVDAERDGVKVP
Kind of assay: NMR HSQC chemical shift perturbation titration of CC0651 into 15N-Cdc34A^CAT. It counts as binding.

The target in a further assay is SCF^Cdc4-Cdc34A (Homo sapiens, UniProt P49427). Kind of assay: biochemical. Conditions: Ubiquitination assay IC50.

One may read the IC50 as the concentration that gives 50% inhibition. A higher IC50 goes with lower potency. The term EC50 denotes the midpoint of the concentration-response curve. On to `COCC(=O)N[C@@H](Cc1ccc(-c2cc(Cl)cc(Cl)c2)cc1)[C@H](O)[C@@H](O)C(=O)O` [CC0651, (2R,3S,4S)-5-(3′,5′-Dichloro-[1,1′-biphenyl]-4-yl)-2,3-dihydroxy-4-(2 methoxyacetamido)pentanoic acid], for which the values for the IC50 on Cdc34A and against SCF^Cdc4-Cdc34A were 18 ± 1 µM and 2.5 ± 1 µM, respectively. In addition, the EC50 on Cdc34A^CAT came to 267 µM.
